The target of the experiment is HCV NS3 protease (Hepatitis C virus genotype 1a (isolate H77) (HCV), UniProt P27958). As to the kind of experiment: biochemical.

Protein sequences, listed by entry. Tags and fused reporters are not part of them. Residues count along the entry.
UniProt P27958, 1027-1208: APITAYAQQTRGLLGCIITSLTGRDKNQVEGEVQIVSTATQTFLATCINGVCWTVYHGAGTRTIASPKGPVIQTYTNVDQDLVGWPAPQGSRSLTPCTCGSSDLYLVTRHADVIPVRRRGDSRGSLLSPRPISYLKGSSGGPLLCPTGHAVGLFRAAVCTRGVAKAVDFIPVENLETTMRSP

`C=C[C@@H]1C[C@]1(NC(=O)[C@@H]1CN(C(=O)Cc2ccccc2)CN1C(=O)[C@@H](NC(=O)OC1CCCC1)C(C)(C)C)C(=O)NS(=O)(=O)C1CC1` [Example 2] gave an IC50 of 490 nM.
The figure for `C=C[C@@H]1C[C@]1(NC(=O)[C@@H]1CN(S(=O)(=O)c2cccc(Br)c2)CN1C(=O)[C@@H](NC(=O)OC1CCCC1)C(C)(C)C)C(=O)NS(=O)(=O)C1CC1` [Example 15] is 32 nM; for `C=C[C@@H]1C[C@]1(NC(=O)[C@@H]1CN(S(=O)(=O)c2cccc(F)c2)CN1C(=O)[C@@H](NC(=O)OC1CCCC1)C(C)(C)C)C(=O)NS(=O)(=O)C1CC1` [Example 9] it is 14 nM; for `C=C[C@@H]1C[C@]1(NC(=O)[C@@H]1CN(S(=O)(=O)c2cnc(Cl)c(Br)c2)CN1C(=O)[C@@H](NC(=O)OC1CCCC1)C(C)(C)C)C(=O)NS(=O)(=O)C1CC1` [Example 16] it is 68 nM.
As to `C=C[C@@H]1C[C@]1(NC(=O)[C@@H]1CN(c2cc(-c3ccccc3)nc(SC)n2)CN1C(=O)[C@@H](NC(=O)OC1CCCC1)C(C)(C)C)C(=O)NS(=O)(=O)C1CC1` [Example 56], inhibition was half-maximal at 3400 nM (IC50).
In turn, `C=C[C@@H]1C[C@]1(NC(=O)[C@@H]1CN(c2ccc(C3CCCCC3)cc2)CN1C(=O)[C@@H](NC(=O)OC1CCCC1)C(C)(C)C)C(=O)NS(=O)(=O)C1CC1` [Example 38] yielded an IC50 of 5 nM.
The figure for `C=C[C@@H]1C[C@]1(NC(=O)[C@@H]1CN(S(=O)(=O)c2ccc(OC)cc2)CN1C(=O)[C@@H](NC(=O)OC1CCCC1)C(C)(C)C)C(=O)NS(=O)(=O)C1CC1` [Example 22] is 2 nM.
The figure for `C=C[C@@H]1C[C@]1(NC(=O)[C@@H]1CN(c2ccc3ccccc3c2)CN1C(=O)[C@@H](NC(=O)OC1CCCC1)C(C)(C)C)C(=O)NS(=O)(=O)C1CC1` [Example 37] is 12 nM; for `C=C[C@@H]1C[C@]1(NC(=O)[C@@H]1CN(C(=O)OCc2ccccc2)CN1C(=O)[C@@H](NC(=O)OC1CCCC1)C(C)(C)C)C(=O)NS(=O)(=O)C1CC1` [Example 3] it is 57 nM.
To `C=C[C@@H]1C[C@]1(NC(=O)[C@@H]1CN(c2ccc(-c3cccc(OC)c3)cc2)CN1C(=O)[C@@H](NC(=O)OC1CCCC1)C(C)(C)C)C(=O)NS(=O)(=O)C1CC1` [Example 47] belongs 110 nM.
`C=C[C@@H]1C[C@]1(NC(=O)[C@@H]1CN(S(=O)(=O)c2cccs2)CN1C(=O)[C@@H](NC(=O)OC1CCCC1)C(C)(C)C)C(=O)NS(=O)(=O)C1CC1` [Example 23] yielded an IC50 of 6 nM.
On to `CCC[C@H](NC(=O)[C@@H]1CN(S(=O)(=O)c2ccc(Br)cc2)CN1C(=O)[C@@H](NC(=O)OC1CCCC1)C(C)(C)C)C(=O)C(=O)NC1CC1` [Example 53], for which the IC50 amounted to 500 nM.
To `C=C[C@@H]1C[C@]1(NC(=O)[C@@H]1CN(c2ccc(-c3cncnc3)cc2)CN1C(=O)[C@@H](NC(=O)OC1CCCC1)C(C)(C)C)C(=O)NS(=O)(=O)C1CC1` [Example 45] belongs 45000 nM.
To `C=C[C@@H]1C[C@]1(NC(=O)[C@@H]1CN(S(=O)(=O)c2cccc3ccccc23)CN1C(=O)[C@@H](NC(=O)OC1CCCC1)C(C)(C)C)C(=O)NS(=O)(=O)C1CC1` [Example 12] belongs 170 nM.
`C=C[C@@H]1C[C@]1(NC(=O)[C@@H]1CN(c2cc(OC)nc(N3CCCCC3)n2)CN1C(=O)[C@@H](NC(=O)OC1CCCC1)C(C)(C)C)C(=O)NS(=O)(=O)C1CC1` [Example 64] registered an IC50 of 1150 nM.
Take `C=C[C@@H]1C[C@]1(NC(=O)[C@@H]1CN(c2ccc(-c3ccccc3OC)cc2)CN1C(=O)[C@@H](NC(=O)OC1CCCC1)C(C)(C)C)C(=O)NS(=O)(=O)C1CC1` [Example 39]: the IC50 came out at 21 nM.
Compound `C=C[C@@H]1C[C@]1(NC(=O)[C@@H]1CN(c2ccc(-c3ccc(OC)cc3)cc2)CN1C(=O)[C@@H](NC(=O)OC1CCCC1)C(C)(C)C)C(=O)NS(=O)(=O)C1CC1` [Example 46] showed an IC50 of 66 nM.
The figure for `C=C[C@@H]1C[C@]1(NC(=O)[C@@H]1CN(S(=O)(=O)c2ccc(C#N)cc2)CN1C(=O)[C@@H](NC(=O)OC1CCCC1)C(C)(C)C)C(=O)NS(=O)(=O)C1CC1` [Example 20] is 6 nM; for `C=C[C@@H]1C[C@]1(NC(=O)[C@@H]1CN(S(=O)(=O)c2ccc(Cl)cc2)CN1C(=O)[C@@H](NC(=O)OC1CCCC1)C(C)(C)C)C(=O)NS(=O)(=O)C1CC1` [Example 19] it is 2 nM; for `C=C[C@@H]1C[C@]1(NC(=O)[C@@H]1CN(c2ccc(-c3ccccc3)cc2)CN1C(=O)[C@@H](NC(=O)OC(C)(C)C)C(C)(C)C)C(=O)NS(=O)(=O)C1CC1` [Example 58] it is 5 nM.
The figure for `C=C[C@@H]1C[C@]1(NC(=O)[C@@H]1CN(c2ccc(-c3ccccc3C)cc2)CN1C(=O)[C@@H](NC(=O)OC1CCCC1)C(C)(C)C)C(=O)NS(=O)(=O)C1CC1` [Example 41] is 39 nM; for `CC(C)(C)OC(=O)N[C@H]1CCCCC/C=C\[C@@H]2C[C@@]2(C(=O)NS(=O)(=O)C2CC2)NC(=O)[C@@H]2CN(c3ccc(-c4ccccc4)cc3)CN2C1=O` (stereo in doubt) [Example 60] it is 2 nM; for `C=C[C@@H]1C[C@]1(NC(=O)[C@@H]1CN(S(=O)(=O)c2ccsc2)CN1C(=O)[C@@H](NC(=O)OC1CCCC1)C(C)(C)C)C(=O)NS(=O)(=O)C1CC1` [Example 24] it is 3 nM.
To `C=C[C@@H]1C[C@]1(NC(=O)[C@@H]1CN(C(=O)c2ccccc2)CN1C(=O)[C@@H](NC(=O)OC1CCCC1)C(C)(C)C)C(=O)NS(=O)(=O)C1CC1` [Example 6] belongs 403 nM.
The compound `C=C[C@@H]1C[C@]1(NC(=O)[C@@H]1CN(S(=O)(=O)Nc2ccccc2)CN1C(=O)[C@@H](NC(=O)OC1CCCC1)C(C)(C)C)C(=O)NS(=O)(=O)C1CC1` [Example 27] returned a concentration for half-maximal inhibition (IC50) of 61 nM.
`C=C[C@@H]1C[C@]1(NC(=O)[C@@H]1CN(c2ccc(N3CCOCC3)cc2)CN1C(=O)[C@@H](NC(=O)OC1CCCC1)C(C)(C)C)C(=O)NS(=O)(=O)C1CC1` [Example 32] came in with an IC50 of 10 nM.
The figure for `C=C[C@@H]1C[C@]1(NC(=O)[C@@H]1CN(c2ccc(-n3cccn3)cc2)CN1C(=O)[C@@H](NC(=O)OC1CCCC1)C(C)(C)C)C(=O)NS(=O)(=O)C1CC1` [Example 33] is 9 nM; for `C=C[C@@H]1C[C@]1(NC(=O)[C@@H]1CN(S(=O)(=O)c2ccc(C(F)(F)F)cc2)CN1C(=O)[C@@H](NC(=O)OC1CCCC1)C(C)(C)C)C(=O)NS(=O)(=O)C1CC1` [Example 21] it is 4 nM.
The figure for `C=C[C@@H]1C[C@]1(NC(=O)[C@@H]1CN(c2ccc(-c3ccccc3)cc2)CN1C(=O)[C@@H](NC(=O)OC(C)(C)C(F)(F)F)C(C)(C)C)C(=O)NS(=O)(=O)C1CC1` [Example 59] is 2 nM; for `C=C[C@@H]1C[C@]1(NC(=O)[C@@H]1CN(c2cc(Cl)nc(N3CCCCC3)n2)CN1C(=O)[C@@H](NC(=O)OC1CCCC1)C(C)(C)C)C(=O)NS(=O)(=O)C1CC1` [Example 65] it is 950 nM.
The figure for `C=C[C@@H]1C[C@]1(NC(=O)[C@@H]1CN(S(=O)(=O)c2cccc(Cl)c2)CN1C(=O)[C@@H](NC(=O)OC1CCCC1)C(C)(C)C)C(=O)NS(=O)(=O)C1CC1` [Example 18] is 28 nM; for `C=C[C@@H]1C[C@]1(NC(=O)[C@@H]1CN(c2ccc(OC)cc2)CN1C(=O)[C@@H](NC(=O)OC1CCCC1)C(C)(C)C)C(=O)NS(=O)(=O)C1CC1` [Example 35] it is 12 nM.
Turning to `C=C[C@@H]1C[C@]1(NC(=O)[C@@H]1CN(S(=O)(=O)c2ccc3ccccc3c2)CN1C(=O)[C@@H](NC(=O)OC1CCCC1)C(C)(C)C)C(=O)NS(=O)(=O)C1CC1` [Example 11], the IC50 worked out at 22 nM.

In general, IC50 refers to the point on the concentration scale where inhibition reaches its midpoint. Lower therefore signals higher potency.

Source of the values: patent US8476225B2, “Antiviral compounds” (Gilead Sciences, Inc., priority 2009, dated 2013).
